The target in one experiment is PIM-1 (Homo sapiens, UniProt P11309). Nature of the experiment: Protein PIM kinase assay (ADP Hunter Plus). As to conditions: read-out: PIM-1 IC50; 100 μM ATP, 100 μM PIMtide. The procedure: (§1) PIM kinase activities were measured by using the commercial ADP Hunter™ Plus assay (DiscoveRx Ref. #33-016), a homogeneous assay measuring ADP accumulation, as a universal product of kinase activity. PIM-1 and PIM-2 proteins were obtained by purification as it is described by Martinez-Gonzalez et. al. Eur. J. Med Chem. 2019, 168, 87-109 and PIM-3 was acquired from Millipore (Cat #14-738). The assay was done following general manufacturer recommendations and adapting protein and substrates concentrations to optimal conditions. Kinase buffer was 15 mM HEPES, pH 7.4, 20 mM NaCl, 1 mM EGTA, 0.02% Tween-20, 10 mM MgCl2 and 0.1 mg/mL LBGG (bovine y-globulin). All PIM kinases assays were done at 100 μM PIM tide (ARKRRRHPSGPPTA), as peptide substrate, and 100 μM ATP. Protein concentration was 50, 350 and 200 pg/μl for PIM-1, 2 and 3, respectively. In order to calculate the IC50 of described compounds, serial 1:3 dilutions were prepared and the reaction started by addition of ATP. Incubation was done for 1 h at 25° C. Reagents A and B (DiscoveRx) were sequentially added to the wells and plates were incubated for 30 min at 37° C. Fluorescence counts were read in a Victor instrument (Perkin Elmer) with the recommended settings (544 and 580 nm as excitation and emission wavelengths, respectively). Values were plot against inhibitor concentration and fit to a sigmoid dose-response curve using Activity Base software from IDBS.

By UniProt entry, the sequences of proteins in these tests, tags left out.
UniProt P11309, whole entry: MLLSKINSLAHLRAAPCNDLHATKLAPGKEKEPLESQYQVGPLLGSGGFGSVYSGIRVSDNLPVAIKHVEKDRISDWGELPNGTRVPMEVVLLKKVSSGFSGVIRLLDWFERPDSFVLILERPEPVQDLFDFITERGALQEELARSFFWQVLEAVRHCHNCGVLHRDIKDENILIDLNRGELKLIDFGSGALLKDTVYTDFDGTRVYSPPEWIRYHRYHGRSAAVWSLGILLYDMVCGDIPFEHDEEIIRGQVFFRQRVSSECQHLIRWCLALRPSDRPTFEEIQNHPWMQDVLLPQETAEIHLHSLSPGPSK
UniProt Q9P1W9, whole entry: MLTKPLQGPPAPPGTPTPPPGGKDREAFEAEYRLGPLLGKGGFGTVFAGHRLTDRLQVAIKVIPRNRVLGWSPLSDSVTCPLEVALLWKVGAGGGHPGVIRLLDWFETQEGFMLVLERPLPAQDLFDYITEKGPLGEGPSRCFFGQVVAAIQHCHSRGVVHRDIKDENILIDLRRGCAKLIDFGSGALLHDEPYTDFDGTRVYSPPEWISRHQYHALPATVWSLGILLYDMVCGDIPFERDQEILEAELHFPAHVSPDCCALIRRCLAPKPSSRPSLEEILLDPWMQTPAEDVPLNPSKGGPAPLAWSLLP

A further experiment concerns the target PIM-2 (Homo sapiens, UniProt Q9P1W9). Briefly: Protein PIM kinase assay (ADP Hunter Plus). As to conditions: read-out: PIM-2 IC50; 100 μM ATP, 100 μM PIMtide. The method, then: as §1
The target of the next experiment is PIM-3 (Homo sapiens, UniProt Q86V86). Briefly: Protein PIM kinase assay (ADP Hunter Plus). As to conditions: read-out: PIM-3 IC50; 100 μM ATP, 100 μM PIMtide. The procedure:
as §1

Experiment [1] deals with BAD S112 phosphorylation in H1299 cells overexpressing PIM-1 (H1299Pim1). Nature of the experiment: BAD S112 phosphorylation inhibition assay (in Cell ELISA). As to conditions: read-out: BAD PH 1299PIM 1 ELIWO, 4 hours, medium without FBS. The method, then: The efficacy of the compounds of the invention on the inhibition of BAD phosphorylation was measured by an in Cell ELISA.
Materials: H1299 cells overexpressing PIM-1 (H1299Pim1). DMSO Plates: 96-well-Polystyrene, Untreated, Round-Bottom plates from Costar (Cat #3797). Cell Plates: 96-Flat bottom biocoated with Poly-D-Lysin plates with lid from Becton Dickinson (Cat #354651). Cell Culture Medium: DMEM high glucose, 10% Fetal Bovine Serum, 2 mM L-Glutamine, P/S. Antibodies: phospho BAD S112 antibody from Cell Signaling (cat. #9291S), anti-rabbit conjugated with peroxidase from Amersham (cat. #3619). Reagent: SuperSignal ELISA femto from Pierce (cat. #1001110).
Procedure: Cells were seeded in 15000 cells per 200 μl per well into 96-well plates and incubated for 16 h at 37° C., 5% CO2. On day two, nine serial 1:2 compound dilutions were made in DMSO in a 96-well plate. The compounds were added to duplicate wells in 96-well cell plates using a FX BECKMAN robot (Beckman Coulter) and were incubated at 37° C. under CO2 atmosphere in medium without fetal bovine serum (FBS). After 4 hours, relative levels of BAD S112 phosphorylation were measured in Cell ELISA using SuperSignal ELISA Femto substrate (Pierce) and read on VICTOR (Perkin Elmer). EC50 values were calculated using ActivityBase from IDBS.
Background: ELISA stands for enzyme-linked immunosorbent assay.

Here are results for 1 molecule from patent US20250042918A1, “COMPOUNDS” (Fundación Del Sector Públlco Estatal Centro Nacional De …, priority 2021, published 2025).

As a reminder, the IC50 is the midpoint of a concentration-inhibition curve.

`CN1CCOc2c1c(N[C@H]1CC[C@H](O)CC1)nn1c(-c3cccc(OC(F)(F)F)c3)nnc21`: the results for the concentration for half-maximal inhibition (IC50) at PIM-1, on PIM-2 and at PIM-3 were 1 to 5 nM, 5 to 10 nM and 10 to 50 nM, respectively. Further, the EC50 in experiment [1] was > 10000 nM.
